Here are results for 2 compounds from patent US20260174855A1 (priority 2022, published 2026).

In the assay the test system is pregnant Sprague-Dawley rats. As to the kind of experiment: fentanyl-induced catalepsy in pregnant dams. The note with it: for maximum group mean of catalepsy: 0.1 mg/kg/day minipump plus daily fentanyl 100 μg/kg s.c., cutoff 30 seconds.

On to `[2H]C([2H])(C1CC1)N1CC[C@]23c4c5ccc(O)c4O[C@H]2[C@@]2(OC)CC[C@@]3(C[C@@H]2[C@](C)(O)C(C)(C)C)C1C5` [BUP-D2, (4aS,6R,7R,7aR,12bS)-3-(cyclopropylmethyl-d2)-6-((S)-2-hydroxy-3,3-dimethylbutan-2-yl)-7-methoxy-1,2,3,4,5,6,7,7a-octahydro-4a,7-ethano-4,12-methanobenzofuro[3,2-e]isoquinolin-9-ol], for which the “maximum group mean of catalepsy” value is 12.95 s (GD 14) and 10.73 s (GD 20). Besides, where the note is “GD 20”, the “time to return to pre-FENT levels after FENT injection” value came to 30 min.

For the compound `CO[C@@]12CC[C@@]3(C[C@@H]1[C@](C)(O)C(C)(C)C)C1Cc4ccc(O)c5c4[C@@]3(CCN1CC1CC1)[C@H]2O5` [BUP, buprenorphine], the “maximum group mean of catalepsy” value (GD 14) amounted to 24.13 s. In addition, where the note is “GD 20”, the “time to return to pre-FENT levels after FENT injection” value is on record as “over 60 minutes” and the “maximum group mean of catalepsy” value is 20.78 s.
